Measurements: US20240043860A1, “NOVEL HYDROXYPHENYLPYRUVATE DIOXYGENASE POLYPEPTIDES AND METHODS OF USE THEREOF” (Syngenta Crop Protection AG, priority 2020, published 2024)

Amino acid sequences for entries named in this document (tags omitted).
UniProt A0ACD5V6K6, entry or part of it R214G/V218I/P271N/A327R/I340E/L359M: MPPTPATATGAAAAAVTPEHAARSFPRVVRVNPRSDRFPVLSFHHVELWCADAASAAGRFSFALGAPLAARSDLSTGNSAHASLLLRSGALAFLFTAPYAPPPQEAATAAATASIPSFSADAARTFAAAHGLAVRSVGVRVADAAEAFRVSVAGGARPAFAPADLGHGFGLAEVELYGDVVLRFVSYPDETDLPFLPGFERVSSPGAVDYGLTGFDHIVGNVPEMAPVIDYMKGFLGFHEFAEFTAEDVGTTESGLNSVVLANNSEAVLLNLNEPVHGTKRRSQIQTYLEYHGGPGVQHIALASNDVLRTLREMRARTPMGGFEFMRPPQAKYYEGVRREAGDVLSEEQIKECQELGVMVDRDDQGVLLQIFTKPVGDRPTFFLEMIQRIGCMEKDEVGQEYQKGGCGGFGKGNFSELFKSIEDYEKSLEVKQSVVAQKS
UniProt A0ACD5V6K6, entry or part of it R214G/V218I/V260A/P271N/A327R/I340E/L359M/K404N: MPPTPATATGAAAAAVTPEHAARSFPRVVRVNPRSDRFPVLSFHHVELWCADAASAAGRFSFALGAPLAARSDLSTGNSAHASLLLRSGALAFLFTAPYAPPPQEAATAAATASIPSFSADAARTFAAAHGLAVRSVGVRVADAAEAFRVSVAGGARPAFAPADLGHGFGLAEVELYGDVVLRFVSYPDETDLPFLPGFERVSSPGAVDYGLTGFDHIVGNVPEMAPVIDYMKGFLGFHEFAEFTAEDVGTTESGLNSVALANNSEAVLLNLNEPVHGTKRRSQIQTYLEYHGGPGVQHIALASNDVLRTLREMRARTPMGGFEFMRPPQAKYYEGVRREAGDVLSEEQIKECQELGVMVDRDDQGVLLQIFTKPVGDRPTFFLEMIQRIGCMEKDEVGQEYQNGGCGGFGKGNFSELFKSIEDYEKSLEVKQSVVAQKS
UniProt A0ACD5V6K6, entry or part of it R214G/V218I/V260A/P271N/A327R/I340E/L359Y: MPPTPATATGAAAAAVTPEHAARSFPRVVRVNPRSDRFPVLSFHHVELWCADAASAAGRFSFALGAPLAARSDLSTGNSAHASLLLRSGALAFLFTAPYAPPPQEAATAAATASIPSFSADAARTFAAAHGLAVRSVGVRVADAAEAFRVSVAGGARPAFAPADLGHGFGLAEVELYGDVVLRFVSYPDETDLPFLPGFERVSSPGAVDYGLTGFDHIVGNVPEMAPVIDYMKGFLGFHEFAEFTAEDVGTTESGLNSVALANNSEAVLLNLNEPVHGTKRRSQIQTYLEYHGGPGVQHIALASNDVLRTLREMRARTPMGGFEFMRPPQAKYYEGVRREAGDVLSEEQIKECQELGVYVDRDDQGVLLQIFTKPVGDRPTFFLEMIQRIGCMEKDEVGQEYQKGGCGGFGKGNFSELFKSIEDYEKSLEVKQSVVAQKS
UniProt A0ACD5V6K6, entry or part of it V218I/P271N/S304T/A327R/I340E/L359M: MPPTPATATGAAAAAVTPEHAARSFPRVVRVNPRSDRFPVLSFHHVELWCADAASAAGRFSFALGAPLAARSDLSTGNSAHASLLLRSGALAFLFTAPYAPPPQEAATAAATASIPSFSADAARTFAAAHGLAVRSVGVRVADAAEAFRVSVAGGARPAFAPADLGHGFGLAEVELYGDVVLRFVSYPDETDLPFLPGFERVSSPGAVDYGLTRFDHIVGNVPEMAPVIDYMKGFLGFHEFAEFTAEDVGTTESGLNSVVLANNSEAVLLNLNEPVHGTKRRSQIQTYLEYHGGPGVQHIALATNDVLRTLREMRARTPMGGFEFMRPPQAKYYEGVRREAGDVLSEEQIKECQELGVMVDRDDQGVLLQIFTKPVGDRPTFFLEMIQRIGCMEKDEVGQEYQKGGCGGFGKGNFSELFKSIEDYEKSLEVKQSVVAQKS
UniProt A0ACD5V6K6, entry or part of it R214G/V218I/P271N/S304T/A327R/I340E/L359M: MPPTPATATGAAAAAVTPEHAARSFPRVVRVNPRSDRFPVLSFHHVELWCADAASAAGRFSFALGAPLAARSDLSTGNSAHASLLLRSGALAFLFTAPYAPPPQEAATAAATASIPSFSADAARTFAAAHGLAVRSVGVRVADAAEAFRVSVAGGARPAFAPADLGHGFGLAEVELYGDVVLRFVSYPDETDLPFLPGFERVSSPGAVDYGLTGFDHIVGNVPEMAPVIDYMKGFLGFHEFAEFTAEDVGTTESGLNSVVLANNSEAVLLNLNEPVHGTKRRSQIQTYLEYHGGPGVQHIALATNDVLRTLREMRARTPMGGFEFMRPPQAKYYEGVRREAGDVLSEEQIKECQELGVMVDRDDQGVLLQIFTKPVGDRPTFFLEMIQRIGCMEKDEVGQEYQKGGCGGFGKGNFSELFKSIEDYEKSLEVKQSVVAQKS
UniProt A0ACD5V6K6, entry or part of it R214G/V218I/V260A/P271N/S304T/A327R/I340E/L359M: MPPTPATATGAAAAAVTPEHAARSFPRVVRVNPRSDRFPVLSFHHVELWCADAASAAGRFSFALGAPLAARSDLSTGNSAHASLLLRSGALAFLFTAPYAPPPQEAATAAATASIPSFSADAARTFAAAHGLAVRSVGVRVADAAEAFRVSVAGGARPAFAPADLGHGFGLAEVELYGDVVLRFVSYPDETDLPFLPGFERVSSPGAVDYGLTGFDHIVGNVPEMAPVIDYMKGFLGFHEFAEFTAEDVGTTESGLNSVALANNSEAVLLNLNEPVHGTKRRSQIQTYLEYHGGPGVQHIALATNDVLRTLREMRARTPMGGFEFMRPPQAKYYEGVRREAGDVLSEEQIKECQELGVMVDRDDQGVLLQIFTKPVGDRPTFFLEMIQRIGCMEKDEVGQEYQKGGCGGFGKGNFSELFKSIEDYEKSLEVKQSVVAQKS
UniProt A0ACD5V6K6, entry or part of it V218I/P271N/A327R/I340E/L359M: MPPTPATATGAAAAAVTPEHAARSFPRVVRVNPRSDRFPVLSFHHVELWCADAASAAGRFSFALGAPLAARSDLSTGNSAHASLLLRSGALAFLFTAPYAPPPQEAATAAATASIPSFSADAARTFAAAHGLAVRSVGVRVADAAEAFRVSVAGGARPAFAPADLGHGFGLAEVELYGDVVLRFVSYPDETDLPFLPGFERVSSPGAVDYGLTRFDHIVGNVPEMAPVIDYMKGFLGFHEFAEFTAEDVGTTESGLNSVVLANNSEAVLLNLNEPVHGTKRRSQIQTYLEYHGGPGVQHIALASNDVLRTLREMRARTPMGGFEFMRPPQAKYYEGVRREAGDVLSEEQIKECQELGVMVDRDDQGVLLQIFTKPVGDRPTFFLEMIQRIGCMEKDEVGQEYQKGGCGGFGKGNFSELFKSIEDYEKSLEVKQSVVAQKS
UniProt A0ACD5V6K6, entry or part of it V218I/A327R/I340E/L359M/G411A: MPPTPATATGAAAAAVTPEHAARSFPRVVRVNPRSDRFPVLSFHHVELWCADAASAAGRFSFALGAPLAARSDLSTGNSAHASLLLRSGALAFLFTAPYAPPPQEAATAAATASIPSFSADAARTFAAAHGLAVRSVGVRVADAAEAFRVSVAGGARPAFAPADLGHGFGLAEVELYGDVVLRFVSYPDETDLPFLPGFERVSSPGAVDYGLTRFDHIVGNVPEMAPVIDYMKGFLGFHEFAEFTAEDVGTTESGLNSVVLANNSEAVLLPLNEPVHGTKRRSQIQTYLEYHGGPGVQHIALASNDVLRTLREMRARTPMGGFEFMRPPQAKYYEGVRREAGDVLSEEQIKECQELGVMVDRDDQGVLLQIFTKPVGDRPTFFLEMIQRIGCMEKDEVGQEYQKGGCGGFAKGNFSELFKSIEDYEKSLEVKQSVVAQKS
UniProt A0ACD5V6K6, entry or part of it R214G/V218I/V260A/A327R/I340E/L359M: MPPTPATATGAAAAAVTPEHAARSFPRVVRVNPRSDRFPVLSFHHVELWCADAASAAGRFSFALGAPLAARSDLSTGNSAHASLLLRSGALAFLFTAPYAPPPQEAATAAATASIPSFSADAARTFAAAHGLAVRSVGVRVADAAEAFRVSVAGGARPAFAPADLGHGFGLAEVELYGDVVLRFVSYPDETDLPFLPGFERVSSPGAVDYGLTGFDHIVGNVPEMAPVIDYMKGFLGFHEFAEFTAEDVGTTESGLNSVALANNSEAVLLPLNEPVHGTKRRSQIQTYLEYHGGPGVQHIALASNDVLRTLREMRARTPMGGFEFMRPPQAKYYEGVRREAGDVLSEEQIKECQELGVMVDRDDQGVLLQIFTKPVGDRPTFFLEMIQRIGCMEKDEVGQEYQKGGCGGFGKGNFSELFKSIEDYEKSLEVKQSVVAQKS
UniProt A0ACD5V6K6, entry or part of it R214G/V218I/S304T/A327R/I340E/L359Y/G411A: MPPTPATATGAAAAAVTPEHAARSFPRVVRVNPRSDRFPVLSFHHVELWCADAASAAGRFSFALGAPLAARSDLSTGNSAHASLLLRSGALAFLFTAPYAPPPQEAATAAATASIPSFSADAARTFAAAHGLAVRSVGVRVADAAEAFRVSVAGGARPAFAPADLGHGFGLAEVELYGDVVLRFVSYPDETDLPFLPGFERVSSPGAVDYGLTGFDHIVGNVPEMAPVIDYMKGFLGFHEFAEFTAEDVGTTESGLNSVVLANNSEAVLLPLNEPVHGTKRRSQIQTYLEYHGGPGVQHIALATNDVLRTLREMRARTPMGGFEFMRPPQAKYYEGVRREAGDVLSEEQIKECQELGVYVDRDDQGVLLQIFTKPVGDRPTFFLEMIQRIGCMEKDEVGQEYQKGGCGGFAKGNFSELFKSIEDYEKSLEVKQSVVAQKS
UniProt A0ACD5V6K6, entry or part of it R214G/V218I/V260A/P271N/A327R/I340E/L359M: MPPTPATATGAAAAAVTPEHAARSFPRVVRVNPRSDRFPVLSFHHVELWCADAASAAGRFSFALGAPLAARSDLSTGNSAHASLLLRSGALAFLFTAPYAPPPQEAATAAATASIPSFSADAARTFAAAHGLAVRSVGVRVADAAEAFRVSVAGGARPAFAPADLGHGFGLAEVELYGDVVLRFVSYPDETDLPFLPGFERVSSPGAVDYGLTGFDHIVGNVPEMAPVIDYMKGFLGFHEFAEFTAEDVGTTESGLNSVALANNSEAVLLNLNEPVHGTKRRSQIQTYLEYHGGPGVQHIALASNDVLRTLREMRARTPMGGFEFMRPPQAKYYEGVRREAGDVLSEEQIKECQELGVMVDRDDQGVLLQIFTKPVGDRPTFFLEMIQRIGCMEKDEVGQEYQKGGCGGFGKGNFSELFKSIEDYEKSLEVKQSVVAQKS
UniProt A0ACD5V6K6, entry or part of it R214G/V218I/A327R/I340E/L359Y/G411A: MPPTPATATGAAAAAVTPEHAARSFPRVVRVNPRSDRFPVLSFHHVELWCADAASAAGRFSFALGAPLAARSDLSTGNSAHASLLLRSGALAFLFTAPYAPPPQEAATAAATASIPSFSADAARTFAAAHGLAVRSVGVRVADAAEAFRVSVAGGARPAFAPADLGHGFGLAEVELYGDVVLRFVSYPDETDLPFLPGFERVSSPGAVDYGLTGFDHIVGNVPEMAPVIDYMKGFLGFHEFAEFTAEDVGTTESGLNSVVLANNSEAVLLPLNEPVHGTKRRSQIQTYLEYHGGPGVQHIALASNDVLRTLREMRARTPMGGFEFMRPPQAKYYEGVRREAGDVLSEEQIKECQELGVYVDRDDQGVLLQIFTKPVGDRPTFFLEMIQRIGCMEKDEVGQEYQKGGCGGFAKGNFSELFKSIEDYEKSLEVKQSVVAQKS
UniProt A0ACD5V6K6, entry or part of it V218I/A327R/I340E/L359M: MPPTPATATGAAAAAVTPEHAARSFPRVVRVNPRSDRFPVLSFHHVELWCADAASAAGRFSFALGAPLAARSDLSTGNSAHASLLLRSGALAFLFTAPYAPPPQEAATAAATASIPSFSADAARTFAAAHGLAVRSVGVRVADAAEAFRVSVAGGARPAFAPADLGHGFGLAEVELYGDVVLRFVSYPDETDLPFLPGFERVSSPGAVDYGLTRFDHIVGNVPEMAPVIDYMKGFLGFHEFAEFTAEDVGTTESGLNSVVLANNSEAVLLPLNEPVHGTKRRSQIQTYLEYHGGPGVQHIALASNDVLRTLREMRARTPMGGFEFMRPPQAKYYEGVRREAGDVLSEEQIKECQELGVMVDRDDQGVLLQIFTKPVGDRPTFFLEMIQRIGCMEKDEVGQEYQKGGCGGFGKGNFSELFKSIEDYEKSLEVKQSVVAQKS
UniProt A0ACD5V6K6, entry or part of it V218I/V260A/A327R/I340E/L359M: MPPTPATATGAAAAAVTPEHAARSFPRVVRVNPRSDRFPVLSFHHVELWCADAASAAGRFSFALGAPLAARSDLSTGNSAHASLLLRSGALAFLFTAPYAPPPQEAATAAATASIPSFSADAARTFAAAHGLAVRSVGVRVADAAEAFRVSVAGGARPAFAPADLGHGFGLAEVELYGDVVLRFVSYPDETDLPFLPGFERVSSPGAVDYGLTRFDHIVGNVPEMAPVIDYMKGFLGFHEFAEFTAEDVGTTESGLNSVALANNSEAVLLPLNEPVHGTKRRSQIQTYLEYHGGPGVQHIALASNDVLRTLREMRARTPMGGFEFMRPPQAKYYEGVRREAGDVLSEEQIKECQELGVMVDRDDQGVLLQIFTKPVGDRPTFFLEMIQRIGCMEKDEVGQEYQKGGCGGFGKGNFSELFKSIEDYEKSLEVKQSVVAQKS

Legend:
Test in all cases: biochemical
[1] = molecular target: HPPD variant AVESA V306 (SEQ ID NO: 32) (Avena sativa, UniProt A0ACD5V6K6, A327R/I340E/L359M/P271N/R214G/V218I)
Method: (§1) 25 ul of the overnight cultures were inoculated into fresh 96-deepwell block containing 1 ml Formedium Autoinduction Media (AIM). The AIM cultures were grown for 3h at 37° C. (900rpm) and then transferred to 20° C. overnight (900rpm) to allow protein expression. The overnight cultures were centrifuged and 500 ul of Cellytic B (Sigma Aldrich) was added to resuspend the cell pellets. The coupled HGO assay (Siehl et al, 2014) is used to generate IC50 values for the HPPD variants of interest.
(§2) E. coli BL21 (DE3) cells were transformed with a pET24a vector containing a C-terminally his-tagged Arabidopsis HGO gene, grown and induced overnight as described for the HPPD variants above. The cell pellet was resuspended in phosphate buffered saline at pH 7.4 containing 10% Glycerol, 1mm Tris[2-carboxyethyl] phosphine-HCl (TCEP) plus 30 mM Imidazole and lysed using lysozyme/benzonase. The extract was clarified by low speed centrifugation and purified in the same buffer down a 1 ml His Gravitrap column. The bound HGO was eluted in 0.25M imidazole and the fractions pooled and beaded into liquid nitrogen. All procedures apart from the centrifugation and beading steps were carried out under a nitrogen atmosphere.
(§3) The coupled HGO assay is carried out by adding 10 ul of HPPD extract to a 96-well plate and then adding 40 ul of reaction buffer (50 mM Bis Tris Propane, pH7.0, 25 mM sodium-L-ascorbate, 400μM mercaptoethanol, 50 μM Fe(II)SO4). The plates are left to incubate for 5 minutes on ice. […] 200 ul of HPP/HGO (197 μM hydroxyphenylpyruvic acid, 16 μl/ml Homogentisic Acid Oxidase in reaction buffer as described above) buffer is then added to the well and the reaction is regularly monitored (e.g. every 30 seconds-5 minutes) for absorbance at 330 nm for a given time period (e.g., for between 15-60 minutes). The data can then be used to calculate the IC50 value for each HPPD variant of interest.

[2] = molecular target: HPPD variant AVESA V332 (SEQ ID NO: 44) (Avena sativa, UniProt A0ACD5V6K6, A327R/I340E/K404N/L359M/P271N/R214G/V218I/V260A)
Method: as §1, §2, §3

[3] = molecular target: HPPD variant AVESA V313 (SEQ ID NO: 38) (Avena sativa, UniProt A0ACD5V6K6, A327R/I340E/L359Y/P271N/R214G/V218I/V260A)
Method: as §1, §2, §3

[4] = molecular target: HPPD variant AVESA V349 (SEQ ID NO: 47) (Avena sativa, UniProt A0ACD5V6K6, A327R/I340E/L359M/P271N/S304T/V218I)
Method: as §1, §2, §3

[5] = molecular target: HPPD variant AVESA V357 (SEQ ID NO: 53) (Avena sativa, UniProt A0ACD5V6K6, A327R/I340E/L359M/P271N/R214G/S304T/V218I)
Method: as §1, §2, §3

[6] = molecular target: HPPD variant AVESA V358 (SEQ ID NO: 56) (Avena sativa, UniProt A0ACD5V6K6, A327R/I340E/L359M/P271N/R214G/S304T/V218I/V260A)
Method: as §1, §2, §3

[7] = molecular target: HPPD variant AVESA V208 (SEQ ID NO: 14) (Avena sativa, UniProt A0ACD5V6K6, A327R/I340E/L359M/P271N/V218I)
Method: as §1, §2, §3

[8] = molecular target: HPPD variant AVESA V180 (SEQ ID NO: 124) (Avena sativa, UniProt A0ACD5V6K6, A327R/G411A/I340E/L359M/V218I)
Method: as §1, §2, §3

[9] = molecular target: HPPD variant AVESA V209 (SEQ ID NO: 17) (Avena sativa, UniProt A0ACD5V6K6, A327R/I340E/L359M/R214G/V218I/V260A)
Method: as §1, §2, §3

[10] = molecular target: HPPD variant AVESA V351 (SEQ ID NO: 50) (Avena sativa, UniProt A0ACD5V6K6, A327R/G411A/I340E/L359Y/R214G/S304T/V218I)
Method: as §1, §2, §3

[11] = molecular target: HPPD variant AVESA V307 (SEQ ID NO: 35) (Avena sativa, UniProt A0ACD5V6K6, A327R/I340E/L359M/P271N/R214G/V218I/V260A)
Method: as §1, §2, §3

[12] = molecular target: HPPD variant AVESA V296 (SEQ ID NO: 20) (Avena sativa, UniProt A0ACD5V6K6, A327R/G411A/I340E/L359Y/R214G/V218I)
Method: as §1, §2, §3

[13] = molecular target: HPPD variant AVESA V162 (SEQ ID NO: 122) (Avena sativa, UniProt A0ACD5V6K6, A327R/I340E/L359M/V218I)
Method: as §1, §2, §3

[14] = molecular target: HPPD variant AVESA V200 (SEQ ID NO: 5) (Avena sativa, UniProt A0ACD5V6K6, A327R/I340E/L359M/V218I/V260A)
Method: as §1, §2, §3

Q: `CS(=O)(=O)c1ccc(C(=O)C2C(=O)CCCC2=O)c([N+](=O)[O-])c1` [Mesotrione, mesotrione] was tested. Which IC50 [1] did it give?
A: Its IC50 is ~50 µM.

Q: What about the IC50 [2] of the same molecule?
A: The IC50 was 347 µM.

Q: What about the IC50 [3] of the same molecule?
A: Its IC50 is 31.5 µM.

Q: What about the IC50 [4] of the same molecule?
A: The IC50 was ~50 µM.

Q: And the IC50 [5]?
A: Its IC50 is > 500 µM.

Q: And the IC50 [6]?
A: Its IC50 is 20.6 µM.

Q: And the IC50 [7]?
A: Its IC50 is > 500 µM.

Q: What about the IC50 [8] of the same molecule?
A: The IC50 was 47.2 µM.

Q: And the IC50 [9]?
A: Its IC50 is 24.4 µM.

Q: And the IC50 [10]?
A: The IC50 was 137 µM.

Q: What about the IC50 [11] of the same molecule?
A: Its IC50 is > 500 µM.

Q: What about the IC50 [12] of the same molecule?
A: The IC50 was 114 µM.

Q: What about the IC50 [13] of the same molecule?
A: Its IC50 is 11.5 µM.

Q: And the IC50 [14]?
A: The IC50 was 18.6 µM.
